Legend:
[1] = biological target: Bovine Cathepsin D (Bos taurus, UniProt P80209); test: cathepsin D inhibition (selectivity versus renin); conditions: read-out: IC50 Bovine Cathepsin D; tested form: methanesulfonate hydrate
[2] = biological target: Monkey Renin (Macaca fascicularis, UniProt Q6DLS0); test: in vitro renin inhibitory activity, radioimmunoassay for angiotensin I; conditions: read-out: IC50 (nM) Monkey Renin; renin incubated 2 hours at 37° with angiotensinogen; tested form: methanesulfonate hydrate
Method: An additional aspect of the present invention is a method for treating renin-associated congestive heart failure in a mammal which comprises administering a pharmaceutical composition containing an effective amount of a compound in combination with a pharmaceutically acceptable carrier to the mammal. The effectiveness of the aforementioned compounds is determined by a test for in vitro renin inhibitory activity. This activity is determined by a standard radioimmunoassay for angiotensin I. In this assay, the enzyme, renin, incubated for 2 hours at 37° in the presence of a substrate, angiotensinogen, generates the product, angiotensin I. Test compounds are added to the incubation mixture. Relative activity is reported as the IC50, which is the molar concentration of test compound, causing a 50% inhibition of the renin activity.

Chains of the proteins cited; added tags and fusions are not shown. Residues count along the entry.
UniProt P80209, 45-390 limits assumed: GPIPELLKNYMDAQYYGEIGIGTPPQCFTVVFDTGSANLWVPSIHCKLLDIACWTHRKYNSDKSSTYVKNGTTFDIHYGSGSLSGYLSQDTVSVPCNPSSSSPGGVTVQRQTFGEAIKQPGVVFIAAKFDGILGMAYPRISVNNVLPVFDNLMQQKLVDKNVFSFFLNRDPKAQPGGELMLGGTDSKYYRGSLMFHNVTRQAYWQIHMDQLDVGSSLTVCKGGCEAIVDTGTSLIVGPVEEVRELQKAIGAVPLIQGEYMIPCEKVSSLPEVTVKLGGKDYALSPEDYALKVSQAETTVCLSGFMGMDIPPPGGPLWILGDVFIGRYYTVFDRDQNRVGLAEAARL
UniProt Q6DLS0, 67-406 limits assumed: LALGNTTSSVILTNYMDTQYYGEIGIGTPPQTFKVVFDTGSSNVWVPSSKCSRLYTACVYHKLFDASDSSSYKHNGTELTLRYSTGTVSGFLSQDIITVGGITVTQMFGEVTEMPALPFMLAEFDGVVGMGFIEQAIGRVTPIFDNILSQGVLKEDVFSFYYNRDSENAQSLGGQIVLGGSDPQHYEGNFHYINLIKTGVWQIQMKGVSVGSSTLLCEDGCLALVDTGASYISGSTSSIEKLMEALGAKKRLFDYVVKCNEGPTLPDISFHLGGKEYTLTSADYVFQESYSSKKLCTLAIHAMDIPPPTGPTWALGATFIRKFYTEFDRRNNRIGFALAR

C=CC[C@H](NC(=O)[C@H](Cc1ccccc1)NC(=O)CCc1cccnc1)C(=O)N[C@@H](CC1CCCCC1)C(=O)C(F)(F)C(=O)NCCN1CCOCC1
IC50 [1]: 1600 nM | IC50 [2]: 0.23 nM

Source: patent publication US5071837A
